Membrane permeability of cyclic peptides

PAMPA measures passive passage through an artificial lipid membrane. P is given in units of 10^-6 cm/s (from log10 values with two decimals); larger means faster passage.

| PAMPA (10^-6 cm/s) | compound |
|---|---|
| 0.76 | CC(C)C[C@@H]1NC(=O)[C@H](CC(C)C)N(C)C(=O)[C@H](C)NC(=O)[C@H](Cc2ccccc2)NC(=O)[C@@H](CC(C)C)NC(=O)[C@@H]2CCCN2C1=O |
| 2.6 | CC(C)C[C@H]1C(=O)N[C@@H](Cc2ccccc2)C(=O)N2CCC[C@@H]2C(=O)N(C)[C@@H](C)C(=O)N(Cc2ccccc2)CC(=O)N[C@@H](Cc2ccccc2)CC(=O)N2CCC[C@H]2C(=O)N1C |
| 5.4 | CC(C)C[C@@H]1NC(=O)[C@H]2CCCN2C(=O)[C@H](CC(C)C)N(C)C(=O)CN(Cc2ccccc2)C(=O)[C@H](C)N(C)C(=O)[C@H]2CCCN2C(=O)[C@H](Cc2ccccc2)NC1=O |
| 1.1 | CC(C)C[C@@H]1NC(=O)[C@@H](C)N(C)C(=O)[C@H]2CCCN2C(=O)[C@H](Cc2ccccc2)NC(=O)[C@H](CC(C)C)NC(=O)[C@@H]2CCCN2C(=O)C[C@H](Cc2ccccc2)NC1=O |
| 3.4 | CC(C)C[C@@H]1NC(=O)[C@@H](C)NC(=O)[C@H](Cc2ccccc2)NC(=O)[C@H](CC(C)C)N(C)C(=O)[C@H]2CCCN2C(=O)[C@@H](CC(C)C)N(C)C1=O |
| 2 | CC(C)C[C@@H]1NC(=O)[C@@H]2CCCN2C(=O)[C@@H](CC(C)C)N(C)C(=O)[C@H](CC(C)C)NC(=O)[C@@H](C)N(C)C(=O)[C@@H]2CCCN2C(=O)[C@H](Cc2ccccc2)NC1=O |
| 1.2 | CC(C)C[C@@H]1NC(=O)[C@@H](C)N(C)C(=O)[C@@H]2CCCN2C(=O)[C@H](Cc2ccccc2)NC(=O)[C@@H](CC(C)C)N(C)C(=O)[C@H]2CCCN2C(=O)[C@H](CC(C)C)NC1=O |
| 1.8 | CC(C)C[C@@H]1NC(=O)[C@H](CC(C)C)N(C)C(=O)[C@H](C)NC(=O)[C@H](Cc2ccccc2)NC(=O)CN(Cc2ccccc2)C(=O)[C@H]2CCCN2C1=O |
| 1.5 | CC(C)C[C@@H]1NC(=O)[C@H](C)N(C)C(=O)[C@H](Cc2ccccc2)NC(=O)CN(Cc2ccccc2)C(=O)[C@H]2CCCN2C(=O)C[C@H](Cc2ccccc2)NC1=O |
| 0.15 | CC(C)C[C@@H]1NC(=O)[C@@H](CC(C)C)NC(=O)[C@H](C)NC(=O)[C@H]2CCCN2C(=O)[C@H](Cc2ccccc2)NC(=O)CN(Cc2ccccc2)C(=O)[C@H]2CCCN2C1=O |
| 0.66 | CC(C)C[C@@H]1C(=O)N[C@@H](Cc2ccccc2)C(=O)N2CCC[C@@H]2C(=O)N[C@@H](C)C(=O)N[C@H](CC(C)C)C(=O)N(C)[C@H](CC(C)C)C(=O)N2CCC[C@@H]2C(=O)N1C |
| 1.7 | CC(C)C[C@@H]1C(=O)N[C@@H](Cc2ccccc2)C(=O)N2CCC[C@H]2C(=O)N(C)[C@@H](C)C(=O)N(Cc2ccccc2)CC(=O)N[C@@H](Cc2ccccc2)CC(=O)N2CCC[C@@H]2C(=O)N1C |
| 2 | CC(C)C[C@@H]1C(=O)N[C@@H](Cc2ccccc2)C(=O)N2CCC[C@H]2C(=O)N[C@H](C)C(=O)N(C)[C@@H](CC(C)C)C(=O)N[C@@H](Cc2ccccc2)CC(=O)N2CCC[C@H]2C(=O)N1C |
| 0.31 | CC(C)C[C@@H]1C(=O)N(C)[C@@H](CC(C)C)C(=O)N2CCC[C@H]2C(=O)N[C@H](CC(C)C)C(=O)N[C@@H](Cc2ccccc2)C(=O)N2CCC[C@H]2C(=O)N(C)[C@@H](C)C(=O)N1C |
| 1.4 | CC(C)C[C@@H]1C(=O)N[C@@H](Cc2ccccc2)C(=O)N2CCC[C@@H]2C(=O)N(C)[C@@H](C)C(=O)N(C)[C@@H](CC(C)C)C(=O)N(Cc2ccccc2)CC(=O)N2CCC[C@H]2C(=O)N1C |
| 2.8 | CC(C)C[C@@H]1C(=O)N[C@H](CC(C)C)C(=O)N2CCC[C@@H]2C(=O)N(C)[C@@H](CC(C)C)C(=O)N[C@@H](Cc2ccccc2)C(=O)N2CCC[C@@H]2C(=O)N[C@@H](C)C(=O)N1C |
| 15 | CC(C)C[C@@H]1C(=O)N2CCC[C@H]2C(=O)N(C)[C@@H](CC(C)C)C(=O)N[C@@H](Cc2ccccc2)C(=O)N2CCC[C@@H]2C(=O)N(C)[C@@H](C)C(=O)N[C@H](CC(C)C)C(=O)N1C |
| 1.7 | CC(C)C[C@H]1NC(=O)C[C@H](Cc2ccccc2)NC(=O)[C@H]2CCCN2C(=O)[C@H](Cc2ccccc2)NC(=O)CN(Cc2ccccc2)C(=O)[C@@H]2CCCN2C(=O)[C@@H](CC(C)C)NC1=O |
| 4.5 | CC(C)C[C@H]1C(=O)N(Cc2ccccc2)CC(=O)N2CCC[C@H]2C(=O)N(C)[C@@H](CC(C)C)C(=O)N[C@@H](Cc2ccccc2)C(=O)N[C@H](C)C(=O)N1C |

The first 3 entries again:

{"smiles": "CC(C)C[C@@H]1NC(=O)[C@H](CC(C)C)N(C)C(=O)[C@H](C)NC(=O)[C@H](Cc2ccccc2)NC(=O)[C@@H](CC(C)C)NC(=O)[C@@H]2CCCN2C1=O", "PAMPA (10^-6 cm/s)": "0.76"}
{"smiles": "CC(C)C[C@H]1C(=O)N[C@@H](Cc2ccccc2)C(=O)N2CCC[C@@H]2C(=O)N(C)[C@@H](C)C(=O)N(Cc2ccccc2)CC(=O)N[C@@H](Cc2ccccc2)CC(=O)N2CCC[C@H]2C(=O)N1C", "PAMPA (10^-6 cm/s)": "2.6"}
{"smiles": "CC(C)C[C@@H]1NC(=O)[C@H]2CCCN2C(=O)[C@H](CC(C)C)N(C)C(=O)CN(Cc2ccccc2)C(=O)[C@H](C)N(C)C(=O)[C@H]2CCCN2C(=O)[C@H](Cc2ccccc2)NC1=O", "PAMPA (10^-6 cm/s)": "5.4"}

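Lipid, pH, incubation time, direction and concentration are not recorded in the data file. Other peptides of the study may be missing here. Peptides that the database sets to -10, its floor, are left out.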

Source: CycPeptMPDB (Li et al. 2023), which took these values from Townsend et al. 2020, doi:10.26434/chemrxiv.13335941.v1.